# Test results: ChEMBL document CHEMBL5329213, “Discovery of a novel GPR35 agonist with high and equipotent species potency for oral treatment of IBD” (Bioorg Med Chem, 2023)
# The chains behind the UniProt entries cited, without tags or fusion partners. Where a name states a change or a piece, a line headed by the entry shows the natural chain unless it says otherwise.
# UniProt Q9ES90: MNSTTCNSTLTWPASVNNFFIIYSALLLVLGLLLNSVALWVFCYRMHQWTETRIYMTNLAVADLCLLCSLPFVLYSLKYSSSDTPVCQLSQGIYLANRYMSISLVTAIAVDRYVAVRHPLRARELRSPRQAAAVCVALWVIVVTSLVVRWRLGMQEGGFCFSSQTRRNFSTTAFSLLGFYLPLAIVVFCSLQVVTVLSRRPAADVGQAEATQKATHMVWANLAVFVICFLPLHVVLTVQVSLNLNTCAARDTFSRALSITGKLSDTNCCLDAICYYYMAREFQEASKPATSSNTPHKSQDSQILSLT
# Biological target: G-protein coupled receptor 35 (Mus musculus) (UniProt Q9ES90)
# Assay: Agonist activity at mouse GPR35 expressed in HEK293 cells co-expressing Galpha16 assessed as increase in calcium mobilization by Fluo-4 AM dye based fluorescence assay relative to-iodoxamide
# Format: functional, cell-based
# Details: filed as agonist
row,Compound,Emax [%]
1,CCOC(=O)C(=O)Nc1cc(C(=O)OCC(C)C)cc(NC(=O)C(=O)OCC)c1Cl,80
2,CN(C)c1c(NC(=O)C(=O)O)cc(C#N)cc1NC(=O)C(=O)O,83
3,COc1c(NC(=O)C(=O)O)cc(C#N)cc1NC(=O)C(=O)O,93
4,O=C(O)C(=O)Nc1cc(NC(=O)C(=O)O)cc(C(F)(F)F)c1,95
5,O=C(O)C(=O)Nc1cc(C(F)(F)F)cc(NC(=O)C(=O)O)c1Cl,108
6,O=C(O)C(=O)Nc1cccc(NC(=O)C(=O)O)c1Cl,128
7,CCOC(=O)C(=O)Nc1cccc(NC(=O)C(=O)OCC)c1Cl,113
8,CCOC(=O)C(=O)Nc1cc(Br)cc(NC(=O)C(=O)OCC)c1Cl,110
9,CCOC(=O)C(=O)Nc1cc(C(F)(F)F)cc(NC(=O)C(=O)OCC)c1Cl,99
10,Cc1cc(NC(=O)C(=O)O)c(Cl)c(NC(=O)C(=O)O)c1,83
11,N#Cc1cc(NC(=O)C(=O)O)cc(NC(=O)C(=O)O)c1,123
12,O=C(Nc1cc(C(F)(F)F)cc(NC(=O)C(=O)OC2CCC2)c1Cl)C(=O)OC1CCC1,96
13,N#Cc1cc(NC(=O)C(=O)O)c(Cl)c(NC(=O)C(=O)O)c1 [LODOXAMIDE],100
14,COC(=O)C(=O)Nc1cc(C(F)(F)F)cc(NC(=O)C(=O)OC)c1Cl,90
15,O=C(Nc1cc(C(F)(F)F)cc(NC(=O)C(=O)OC2CCCCC2)c1Cl)C(=O)OC1CCCCC1,86
